Laboratory results as given in patent EP4821925A2, “MRGPRX2 ANTAGONIST AND USE THEREOF” (dated 2026).

Protein sequences, listed by entry. Tags and fused reporters are not part of them.
UniProt O95342, whole entry: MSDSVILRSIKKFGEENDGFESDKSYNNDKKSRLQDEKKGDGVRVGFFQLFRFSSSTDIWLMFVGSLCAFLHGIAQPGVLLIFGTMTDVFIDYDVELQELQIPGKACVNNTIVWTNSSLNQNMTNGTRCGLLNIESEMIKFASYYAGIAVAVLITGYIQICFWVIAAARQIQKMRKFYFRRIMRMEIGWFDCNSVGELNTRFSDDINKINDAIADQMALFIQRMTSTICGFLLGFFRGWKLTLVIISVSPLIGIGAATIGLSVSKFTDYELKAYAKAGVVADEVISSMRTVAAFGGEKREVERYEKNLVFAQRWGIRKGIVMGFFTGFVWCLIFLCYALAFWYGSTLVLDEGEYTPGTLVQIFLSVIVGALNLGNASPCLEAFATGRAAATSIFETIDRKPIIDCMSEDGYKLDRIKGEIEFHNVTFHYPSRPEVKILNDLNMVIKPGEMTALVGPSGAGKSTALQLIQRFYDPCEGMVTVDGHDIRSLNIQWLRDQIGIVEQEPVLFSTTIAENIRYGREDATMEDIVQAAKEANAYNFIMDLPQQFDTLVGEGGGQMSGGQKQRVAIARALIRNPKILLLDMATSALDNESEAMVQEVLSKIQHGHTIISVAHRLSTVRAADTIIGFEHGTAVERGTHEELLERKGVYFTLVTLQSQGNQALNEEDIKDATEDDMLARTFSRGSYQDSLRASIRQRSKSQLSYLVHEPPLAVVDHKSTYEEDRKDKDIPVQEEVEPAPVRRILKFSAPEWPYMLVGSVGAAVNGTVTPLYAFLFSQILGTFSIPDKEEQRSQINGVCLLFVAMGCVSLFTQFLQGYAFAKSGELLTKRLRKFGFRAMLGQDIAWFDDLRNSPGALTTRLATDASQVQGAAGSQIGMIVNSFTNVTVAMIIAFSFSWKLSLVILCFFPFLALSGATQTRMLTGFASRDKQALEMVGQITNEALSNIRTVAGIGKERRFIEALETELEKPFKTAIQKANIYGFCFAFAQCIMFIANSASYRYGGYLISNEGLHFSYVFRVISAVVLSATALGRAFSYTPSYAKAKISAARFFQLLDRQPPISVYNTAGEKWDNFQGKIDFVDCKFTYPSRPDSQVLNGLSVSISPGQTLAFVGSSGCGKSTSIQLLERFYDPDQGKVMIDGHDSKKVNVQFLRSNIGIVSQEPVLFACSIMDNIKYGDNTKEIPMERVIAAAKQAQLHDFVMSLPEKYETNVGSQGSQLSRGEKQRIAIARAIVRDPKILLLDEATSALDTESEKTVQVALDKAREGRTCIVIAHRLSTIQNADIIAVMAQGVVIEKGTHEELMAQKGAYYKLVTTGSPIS
UniProt Q96LB1, whole entry: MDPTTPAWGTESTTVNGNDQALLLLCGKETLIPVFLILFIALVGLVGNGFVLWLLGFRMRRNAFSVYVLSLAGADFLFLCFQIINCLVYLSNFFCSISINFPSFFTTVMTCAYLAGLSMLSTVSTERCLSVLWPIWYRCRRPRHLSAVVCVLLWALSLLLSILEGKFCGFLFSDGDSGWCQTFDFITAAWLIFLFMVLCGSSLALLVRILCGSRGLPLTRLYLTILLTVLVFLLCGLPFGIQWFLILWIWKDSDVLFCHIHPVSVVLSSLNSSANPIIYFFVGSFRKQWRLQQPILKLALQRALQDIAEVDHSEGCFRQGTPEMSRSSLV

What was measured:
human BSEP = human BSEP (Homo sapiens, UniProt O95342); assay: Assay for inhibitory effect on BSEP (vesicle transport); details: vesicle expressing human BSEP, probe substrate transport, 37 °C
Method: The assay for the inhibitory effect on bile salt export pump (BSEP) by the compounds was performed using a vesicle expressing human BSEP (GenoMembrane). The compounds at different concentrations were pre-incubated with the vesicle for 5 min, with a negative control (NC) group and a positive control (PC) group set up. The NC group involved pre-incubation of the vesicle with blank buffer at 37 °C for 5 min, and the PC group involved pre-incubation of the vesicle with a positive inhibitor at 37 °C for 5 min. Subsequently, with the addition ofATP or AMP separately, the mixture was incubated with the probe substrate at 37 °C for 5 min. The assay was terminated using pre-cooled Buffer B1 (10 × Buffer B1 (Stopping and Washing Buffer): 100 mM Hepes-Tris, 1000 mM KNO3, 500 mM Sucrose). The test samples were transferred to a 96-well filter plate, subjected to suction filtration by a vacuum pump, and then washed 5 times with 0.2 mL of pre-cooled Buffer B1. 50 µL of 80% methanol was used to dissolve the vesicles on the filter plate. After collection, the mixture was centrifuged at 2000 rpm for 2 min to collect the filtrate, and the process was repeated once. The two filtrates were combined and mixed well to obtain approximately 100 µL of filtrate. Pre-cooled methanol containing an internal standard was added, and the mixture was centrifuged at 12,000 rpm for 5 min. The supernatant was collected for LC-MS/MS quantification analysis to detect the amount of substrate transported. The concentration of the compound was plotted on the X axis, and the relative activity (% of NC) was plotted on the Y axis. The IC50 value and the inhibition rate of the compound on inhibiting bile salt export pump activity were calculated using Prism software.
The transport rate (activity) and relative activity under different conditions were calculated according to the following formulas: Substrate active transport rate (pmol/min/mg) =; (transport amount of substrate driven by ATP−average transport amount of substrate driven by AMP (pmol))/(incubation time (min) × vesicle protein amount (mg)) [formula] Relative activity (%ofNC) = (transport activity of PC sample or test sample)/(transport activity of NC sample)% [formula] Table 6. Inhibitory effect of test compounds on BSEP

human MRGPRX2 = human MRGPRX2 (Homo sapiens, UniProt Q96LB1); assay: MRGPRX2 in vitro IP-1 assay; details: CHO stably-transfected cell line highly expressing human MRGPRX2; agonist Cortistatin-14; IP-1 readout 665 nm/620 nm
Method: The antagonistic effect of the compounds on MRGPRX2 was determined in a CHO stably-transfected cell line that highly expresses human MRGPRX2. The drugs prepared by serial dilution with DMSO were added to a micropore plate, and the stably-transfected cells were treated with trypsin. The cells were collected, counted, and then seeded into the microplate, and the microplate was incubated at 37 °C for 10 min. Cortistatin-14 solution at a specific concentration was added, and the cells were centrifuged and then incubated at 37 °C for 60 min. After the incubation was completed, diluted d2-IP1 and Anti-IP 1-Cryptate were added to each well. The cells were centrifuged and then left to stand at room temperature for 1 h. After the incubation was completed, the fluorescence readings at 665 nm and 620 nm were obtained. The concentration of the compound was plotted on the X-axis, and the fluorescence signal ratio was plotted on the Y-axis. The antagonistic effect (IC50 value) of the compound was calculated using Graphpad software. Table 2: MRGPRX2 IP-1 assay results

IC50 (human MRGPRX2) [µM]	Compound	IC50 (human BSEP) [µM]
0.099	Cn1nc(N[C@H]2CC[C@@H](NC(=O)c3cn(CC(F)(F)F)nc3Cl)CC2)cc(C(F)(F)F)c1=O	79
0.07	COc1ccc(C(=O)NC2CCC(Nc3cc(C(F)(F)F)c(=O)n(C)n3)CC2)cc1 (stereo not shown)	95
